Compound activity from PubChem.
Exocytosis inh: lytic granule exocytosis inhibition. TALL-104 LAMP-1 surface exposure, flow cytometry; cells stimulated with thapsigargin and PMA. inhibition, % at 10 µM. actives 0.66% (n = 360,000);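 active means inhibition above about 55%, limit read from the data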
pCIP destab: compounds decreasing mouse p/CIP protein stability | Q05BA5 | F442A p/CIP-EGFP cells, EGFP fluorescence, 16 h | decrease of EGFP signal, % at 10 µM | actives 0.01% (n = 290,000) | AID 1984;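 active means EGFP signal decrease of at least 30% at 10 µM or well 3 SD below plate mean, unless failing retest; inactive means the rest, including hits failing retest or dose response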
ABCB6 inh MLPCN: human ABCB6 transporter inhibition; Q9NP58; K562-ABCB6 porphyrin accumulation, flow cytometry, 1 h; active compounds read low; fluorescence ratio to DMSO, % at 10 µM; actives 0.19% (n = 360,000); AID 602162;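 active means fluorescence ratio to DMSO below 75%, the collection mean minus 3 SD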;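 further: signal is porphyrin accumulated inside mitochondria; 100% equals median channel fluorescence of DMSO control wells; lower ratio means ABCB6 inhibition with less porphyrin fluorescence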
UUG fidelity: modulators of yeast start codon fidelity, primary screen, whole organism, S. cerevisiae, single point, plate reader | activity score, % at 18.7 µM | 350,000 tested, 0.13% active | S. cerevisiae UUG-firefly luciferase reporter, luminescence/redox ratio;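 active means replicate mean at a twofold rise or more, about +100% in these data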;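 further: firefly luciferase made from a UUG start codon reports start codon fidelity; reporter light over untreated wells divided by growth signal over untreated wells; some hits fall short of that in this replicate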
PKA-R2B act: activates the human PKA-R2B holoenzyme complex; P22694+P31323; PKA-R2B holoenzyme dissociation, Cy5-IP20 fluorescence polarization; R2B truncated from residue 108, S112A mutant; 0% DMSO only, 100% 113 µM cGMP; activation, % at 11.4 µM; actives 0.079% (n = 340,000); AID 504700;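 active means activation above a cutoff set at the mean over all compounds plus 3 SD, cut at about 18% in these data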;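 further: higher means more holoenzyme dissociation and a rise in polarization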
PKA-R1A act: activators of PKA-R1A complex; PKA-R1A dissociation, Cy5-IP20 fluorescence polarization; scaled: DMSO 0%, 113 µM cGMP 100%; actives 0.083% (n = 340,000); AID 504707; P00514+P68181; activation, % at 11.4 µM;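 active means percent activation above the mean of all tested compounds plus 3 SD, cut at about 19% in these data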;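 further: higher means more PKAc released from R1A so a rise in polarization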
Starred values were filed as active, the others as inactive; / = no result. In the library only some 0.94% were active in any assay of this set; here they are far more common.

Exocytosis inh	molecule	pCIP destab	ABCB6 inh MLPCN	UUG fidelity	PKA-R2B act	PKA-R1A act
0	O=C(Nc1ccc2cn[nH]c2c1)c1c(Cl)cccc1Cl	2	101	23	4	2
/	C[C@@H]1CN([C@@H](C)CO)C(=O)c2cc(C#Cc3ccccc3F)cnc2O[C@H]1CN(C)C(=O)c1ccc2c(c1)OCO2	/	/	3	/	/
62*	C=CCn1c(O)c(C2=c3ccccc3=NC2=O)c2ccccc21	8	96	-11	-11	-1
6	Cc1ccc2c(c1)c(C1=c3ccccc3=NC1=O)c(O)n2C	9	93	-20	4	6
/	O=C(N[C@H]1CC[C@@H](CCNC(=O)C2CCOCC2)O[C@@H]1CO)c1ccccn1	/	/	-21	/	/
73*	CCOC(=O)c1c(SCCN2CCCC2)n(-c2ccccc2)c(=S)n(-c2ccccc2)c1=O	/	99	/	1	0
0	Cc1nn(-c2ccc(Cl)cc2)c(=O)c2ccccc12	7	98	/	5	-7
92*	Cc1c(Cl)sn(-c2ccc(Cl)cc2)c1=O	-9	99	-10	-1	-2
71*	Cc1ccccc1-n1sc2cc(F)ccc2c1=O	-7	98	-34	-7	7
6	Cc1ccc(NC2=C/C(=N/S(=O)(=O)c3cccs3)c3ccccc3C2=O)cc1	-7	101	/	-4	3
75*	O=C1C(Nc2ccccc2)=C/C(=N/S(=O)(=O)c2cccs2)c2ccccc21	/	109	-17	8	-5
/	O=C(Cc1ccncc1)Nc1ccc2c(c1)[C@H]1C[C@H](CC(=O)N3CCCCC3)O[C@@H](CO)[C@H]1O2	/	/	-12	/	/
/	Cc1ccc(S(=O)(=O)NCC[C@H]2CC[C@H](NC(=O)Nc3ccccc3F)[C@@H](CO)O2)cc1	/	/	16	/	/
-3	CC(C)(C)OC(=O)CNC(=O)c1[nH]cnc1C(=O)NCCCCCNC(=O)OC(C)(C)C	-16	74*	-6	-9	-17
-12	CC(C)(C)OC(=O)CNC(=O)c1[nH]cnc1C(=O)NCCCCCN	/	96	-1	3	-3
/	COCC#Cc1cnc2c(c1)C(=O)N([C@H](C)CO)C[C@@H](C)[C@@H](CN(C)C(=O)c1cnccn1)O2	/	/	-9	/	/
56*	CN(CCO)c1cc(Sc2nc3ccccc3s2)c2nonc2c1[N+](=O)[O-]	-23	122	-1	-4	5
/	CN(C)C(=O)C[C@H]1C[C@H]2c3cc(NC(=O)c4ccc5c(c4)OCO5)ccc3O[C@H]2[C@@H](CO)O1	/	/	-3	/	/
/	C[C@@H]1CN([C@H](C)CO)C(=O)c2cc(NC(=O)Nc3ccc4c(c3)OCO4)ccc2O[C@@H](C)CCCCO[C@H]1CN(C)Cc1ccc(Cl)c(Cl)c1	/	/	12	/	/
/	O=C(C[C@@H]1CC[C@@H](NC(=O)NC2CCCCC2)[C@@H](CO)O1)NCc1ccc(F)cc1	/	/	-8	/	/
80*	COc1cccc(-n2nnnc2S(C)(=O)=O)c1	-16	90	-49	3	-8
40	Cc1cc(C)c2c(=O)n(CC(=O)Nc3ccc(Cl)cc3)sc2n1	0	106	/	-1	-11
81*	Cc1ccc(NC(=O)Cn2sc3nc(C)cc(C)c3c2=O)c(Cl)c1	-13	89	-19	-5	-1
1	Cc1ccc(/C=C2\C(=O)ON=C2c2ccccc2)o1	-7	101	/	/	/
106*	Cc1ccc(-c2ccc(/C=C3\C(=O)ON=C3c3ccccc3)o2)c([N+](=O)[O-])c1	-23	97	-8	4	-8

Two entries drawn at random from the list so far:
Exocytosis inh	molecule	pCIP destab	ABCB6 inh MLPCN	UUG fidelity	PKA-R2B act	PKA-R1A act
6	Cc1ccc(NC2=C/C(=N/S(=O)(=O)c3cccs3)c3ccccc3C2=O)cc1	-7	101	/	-4	3
/	O=C(Cc1ccncc1)Nc1ccc2c(c1)[C@H]1C[C@H](CC(=O)N3CCCCC3)O[C@@H](CO)[C@H]1O2	/	/	-12	/	/

Some of these compounds in order of the Exocytosis inh value, smallest number first.
Structure,Exocytosis inh,pCIP destab,ABCB6 inh MLPCN,UUG fidelity,PKA-R2B act,PKA-R1A act
CC(C)(C)OC(=O)CNC(=O)c1[nH]cnc1C(=O)NCCCCCNC(=O)OC(C)(C)C,-3,-16,74*,-6,-9,-17
Cc1ccc(/C=C2\C(=O)ON=C2c2ccccc2)o1,1,-7,101,/,/,/
Cc1cc(C)c2c(=O)n(CC(=O)Nc3ccc(Cl)cc3)sc2n1,40,0,106,/,-1,-11

Next part
Exocytosis inh	molecule	pCIP destab	ABCB6 inh MLPCN	UUG fidelity	PKA-R2B act	PKA-R1A act
/	O=C(C[C@@H]1C=C[C@H](NC(=O)Nc2ccc(C(F)(F)F)cc2)[C@@H](CO)O1)NCCN1CCCC1	/	/	-9	/	/
/	CCCN(C)C[C@H]1Oc2ncc(-c3cccc(C(=O)N(C)C)c3)cc2C(=O)N([C@@H](C)CO)C[C@H]1C	/	/	-10	/	/
79*	COc1ccc2c(c1OC)C(=O)OC2Nc1nc(-c2cc3ccccc3oc2=O)cs1 (stereo not drawn)	2	104	-2	7	-6
12	O=C1c2ccccc2C(=O)N1c1nccs1	/	100	-7	1	2
85*	O=c1c2ccccc2sn1-c1nccs1	-3	107	/	/	/
-1	C[C@@H]1[C@@H](Sc2ccccc2)CC(=O)O[C@@H]1c1ccc(-c2ccccc2)cc1	/	97	-3	-14	-8
102*	O=C1C=CC2(O[C@H](c3ccccc3)[C@@H](c3ccccc3)O2)[C@H](Sc2ccccc2O)C1	/	105	/	0	-6
68*	CCOc1cccc(-c2nn(-c3ccccc3)cc2/C=C(/C#N)C(=O)NCCCn2ccnc2)c1	-3	97	/	1	-3
80*	CC1(C)OC1COc1c2ccoc2cc2oc(=O)ccc12 (stereo not drawn)	-14	99	/	0	11
/	CO[C@@H]1CN(C)C(=O)c2ccc(NS(=O)(=O)c3ccccc3F)cc2OC[C@@H](C)N(S(C)(=O)=O)C[C@H]1C	/	/	-6	/	/
-1	Cc1cc(NC(=O)C2CC(=O)OC2c2ccccc2)no1 (stereo not drawn)	-2	74*	-7	1	-3
/	Cc1ccc(-c2ccc3c(c2)O[C@@H](CN(C)C(=O)C2CC2)[C@H](C)CN([C@H](C)CO)S3(=O)=O)cc1	/	/	23	/	/
95*	O=c1ccsn1Cc1ccccc1	-8	107	/	2	-14
6	O=C1NC(Cc2ccccc2)C(=O)N1Cc1ccccc1 (stereo not drawn)	/	106	-15	-4	-1
-4	Cc1cccc([C@@H](NC(=O)OC(C)(C)C)C(=O)OC(C)(C)C)c1	/	68*	9	-10	13
2	CC(C)(C)OC(=O)N[C@@H](C(=O)OC(C)(C)C)c1ccccc1	/	92	-19	-8	-14
74*	CN1CCc2cccc3c2[C@@H]1Cc1ccc(O)c(O)c1-3	-4	101	-29	2	-13
-2	COc1ccc2c(c1O)-c1ccccc1CCN(C)C2	-11	103	-24	6	-1
/	Cc1noc(C)c1NC(=O)Nc1ccc2c(c1)C(=O)N([C@H](C)CO)C[C@@H](C)[C@H](CN(C)C(=O)NC1CCCCC1)O2	/	/	6	/	/
/	COc1ccccc1S(=O)(=O)N[C@@H]1CC[C@@H](CCNC(=O)C2CC2)O[C@H]1CO	/	/	-5	/	/
24	Cc1ccc2nc(NC(=O)CCn3c(=O)sc4ccccc43)sc2c1	4	72*	-4	-5	-8
69*	CCN(CC)CCCNC(=S)N1CCN(c2nc(-c3ccc(F)cc3)cs2)CC1	-10	97	-18	-2	3
86*	COC1=CC(=O)c2nc(Cl)ccc2C1=O	/	105	/	/	/
88*	Cc1c(C)c(C)c(CO/N=C/c2cccs2)c(C)c1C	0	95	/	-8	-6
